Amino acid sequences for entries named in this document (tags omitted). Residues count along the entry.
UniProt Q9Y5X5, 103-522: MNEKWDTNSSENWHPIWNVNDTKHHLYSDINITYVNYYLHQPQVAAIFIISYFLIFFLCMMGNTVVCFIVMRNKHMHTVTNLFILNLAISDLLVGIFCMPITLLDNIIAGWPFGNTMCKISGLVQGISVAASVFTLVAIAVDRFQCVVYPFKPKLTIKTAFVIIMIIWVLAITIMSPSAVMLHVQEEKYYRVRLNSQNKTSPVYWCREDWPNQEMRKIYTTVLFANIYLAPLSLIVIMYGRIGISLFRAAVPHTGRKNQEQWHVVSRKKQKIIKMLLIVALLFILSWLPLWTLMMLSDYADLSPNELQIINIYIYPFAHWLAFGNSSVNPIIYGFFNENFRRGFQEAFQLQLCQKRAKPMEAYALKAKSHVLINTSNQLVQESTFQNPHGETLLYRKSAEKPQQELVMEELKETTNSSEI

In patent US20050136444A1 (priority 2003, published 2005):

Target: NPFF2 (Homo sapiens, UniProt Q9Y5X5)
Assay: Receptor Selection and Amplification Technology (R-SAT) functional assay, NPFF2
Type: cell-based
Settings: for NPFF2 % Efficacy: Table 1, Efficacy is relative to endogenous ligand; for NPFF2 pEC50: Table 1, NA = No activity detectable at the highest dose tested (20 μM)

Row | NPFF2 % Efficacy | NPFF2 pEC50 | SMILES
1 | 105% | 5.4 | CN(C)c1ccc(/C=N/NC(=N)N)cc1
2 | 53% | 5.2 | C/C(=N\NC(=N)N)c1ccc(Cl)cc1Cl
3 | 47% | 5.0 | COc1cccc(/C=N/NC(=N)N)c1
